Ab-14 heavy chain CDR variants: yeast mating affinities

Target peptide (SARS-CoV-2 spike, HR2 region): PDVDLGDISGINAS

Each scFv is VH, three GGGGS repeats, VL, as in the parent Ab-14, and differs from it in the CDRs of the heavy chain only.
VH: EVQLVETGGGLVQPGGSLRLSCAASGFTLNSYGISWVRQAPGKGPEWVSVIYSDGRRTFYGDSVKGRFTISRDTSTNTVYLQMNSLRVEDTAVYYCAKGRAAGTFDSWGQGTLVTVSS
VL: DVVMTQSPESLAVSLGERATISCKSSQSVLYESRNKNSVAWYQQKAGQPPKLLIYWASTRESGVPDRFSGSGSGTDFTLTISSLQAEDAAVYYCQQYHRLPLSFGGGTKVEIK

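Phage display of a naive human antibody library on the peptide gave the parent. This is the validation round: designs drawn from the data on random variants, tested in the same kind of assay. Group labels follow the data file (Ctrl: baseline library sampled from a position-specific scoring matrix, with some repeated check sequences; Rand: our label for a block that the file lists under HC and that is probably the random mutants of the ten best first-round binders; En: ensemble of fine-tuned language models; GP: Gaussian process model; GPLM: also part of the Gaussian process libraries; HC: hill climbing; Gen: genetic algorithm; Gibbs: Gibbs sampling; a sequence that several methods proposed may carry one label only). The assay is AlphaSeq: two haploid yeast populations carry antibody and antigen on their surface. The frequency of each diploid, read from paired DNA barcodes, reflects how well the two displayed proteins bind. The ratio of observed to expected reads was calibrated, replicate by replicate, on BCL2-family standards whose Kd was known from biolayer interferometry. The assay was run in six technical replicates.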

Positions count from residue 1 of the parent VH; T28D puts D in place of T. This list holds designs with at most six substitutions. Kd is apparent (estimated from mating counts) and averaged on the log scale over replicates with a signal. Smaller is tighter. Where no diploid with the target was found in any replicate, the entry reads "no signal": below detection, most likely a poor binder, though not proof of it.

- T28D/R56M/A101E [GP_Gen] -> 650 pM (6 of 6 replicates; controls 0 of 18)
- N30E/G61A/R100Q/S107K [GP_Gibbs] -> 5.3 nM (5 of 6 replicates; controls 2 of 18)
- T28D/G99T/T104W/F105N/D106N [Rand] -> no signal (0 of 6 replicates; controls 1 of 18)
- T28N/F59Y/S63E/G99W/R100K/G103W [Ctrl] -> no signal (0 of 6 replicates; controls 0 of 18)
- S31E/G61K/A101H [GPLM_HC] -> 40 nM (5 of 6 replicates; controls 0 of 18)
- T28R/G61H/R100Q/A101L [GP_HC] -> 74 nM (6 of 6 replicates; controls 0 of 18)
- S31E/D106T/S107D [GP_HC] -> 100 nM (1 of 6 replicates; controls 0 of 18)
- S31E/G61T/A101M [GPLM_HC] -> 1.7 nM (6 of 6 replicates; controls 0 of 18)
- T28S/S31E/G61D/R100P/S107R [GP_HC] -> 40 nM (2 of 6 replicates; controls 1 of 18)
- T28N/G61H/R100E [GPLM_Gibbs] -> 2.9 nM (6 of 6 replicates; controls 1 of 18)
- S63Q/S107V [Ctrl] -> 230 nM (3 of 6 replicates; controls 0 of 18)
- T28N/G61K/A101T [GPLM_Gen] -> 3.9 nM (6 of 6 replicates; controls 0 of 18)
- T28E/G61H/A101N [GP_Gen] -> 13 nM (6 of 6 replicates; controls 0 of 18)
- T28D/S31E/S53A/G61I/R100E/A101Q [En_HC] -> 270 pM (6 of 6 replicates; controls 0 of 18)
- T28E/G61S/R100V/A102G [GP_HC] -> 8.4 nM (6 of 6 replicates; controls 0 of 18)
- G61S/R100Q/A101T/S107T [GPLM_Gibbs] -> 1.2 nM (6 of 6 replicates; controls 1 of 18)
- T28E/G61I/S63D/R100Q/S107V [GP_Gibbs] -> 22 nM (4 of 6 replicates; controls 0 of 18)
- T28Q/S31D/G61I/S63H/R100K [GP_HC] -> 13 nM (2 of 6 replicates; controls 0 of 18)
- T28S/S31E/G61T/S63D/R100E/D106K [GP_HC] -> 1.3 nM (6 of 6 replicates; controls 0 of 18)
- G26P/T28S/A101N [GP_Gibbs] -> no signal (0 of 6 replicates; controls 1 of 18)
- T28C/S53A/F105M/D106K [Rand] -> no signal (0 of 6 replicates; controls 0 of 18)
- T28H/R56E/F59A/R100D/A101E/S107W [Ctrl] -> 1.4 nM (2 of 6 replicates; controls 0 of 18)
- R56V [Ctrl] -> 32 nM (5 of 6 replicates; controls 0 of 18)
- G26K/N30D/S63D/G103L/D106N [Ctrl] -> no signal (0 of 6 replicates; controls 0 of 18)
- G61A/S63R/R100N [GPLM_Gibbs] -> 13 nM (3 of 6 replicates; controls 0 of 18)
- T28S/S31E/G61H [GPLM_Gen] -> 3.0 nM (6 of 6 replicates; controls 0 of 18)
- T28S/R100M/A101E/S107K [GP_Gibbs] -> 1.2 nM (6 of 6 replicates; controls 0 of 18)
- T28E/R56K/S63N/A101T [GP_Gen] -> 3.8 nM (6 of 6 replicates; controls 2 of 18)
- T28Q/G61A/S63Q/R100N [GP_Gibbs] -> 9.4 nM (5 of 6 replicates; controls 0 of 18)
- S31E/G61S/R100M/A102G [GP_HC] -> 3.3 nM (4 of 6 replicates; controls 1 of 18)
- T28N/G61A/S63K/R100Q [GPLM_Gen] -> 3.9 nM (6 of 6 replicates; controls 1 of 18)
- N30E/R100S/A101V [Ctrl] -> 12 nM (6 of 6 replicates; controls 1 of 18)
- T28N/R100L/A101N [GP_Gen] -> 4.7 nM (6 of 6 replicates; controls 0 of 18)
- T28D/G61L/A101E/S107T [GP_Gibbs] -> 750 pM (6 of 6 replicates; controls 0 of 18)
- T28D/R100N/S107A [GP_Gen] -> no signal (0 of 6 replicates; controls 0 of 18)
- T28D/G61T/A101E [GPLM_Gibbs] -> 1.1 nM (6 of 6 replicates; controls 0 of 18)
- G26A/T28D/T104W/D106N [Rand] -> no signal (0 of 6 replicates; controls 0 of 18)
- T28N/R100M/A101T [GP_Gen] -> 5.3 nM (2 of 6 replicates; controls 0 of 18)
- G26S/S53A/R100Q [GPLM_Gen] -> 3.4 nM (6 of 6 replicates; controls 0 of 18)
- T28S/S31E/G61E/S63D/A101F [GP_HC] -> 4.6 nM (6 of 6 replicates; controls 0 of 18)

3 of these entries, quoted again:

- T28C/S53A/F105M/D106K [Rand] = no signal (0 of 6 replicates; controls 0 of 18)
- T28S/S31E/G61T/S63D/R100E/D106K [GP_HC] = 1.3 nM (6 of 6 replicates; controls 0 of 18)
- G61A/S63R/R100N [GPLM_Gibbs] = 13 nM (3 of 6 replicates; controls 0 of 18)

The authors averaged sequences with at least three values out of six and counted those with two or fewer as poor binders. Values of this round are not directly comparable with the first-round values of the same sequences. Of ten entries with the parent sequence, four were seen in most replicates (averages 2.2 nM to 240 nM), three in one and three in none, so single entries are noisy. Empty control strains, which show no peptide, gave a signal in 1% of pairings with all heavy chain designs; the median was 120 nM and 95% of these signals were weaker than 7.0 nM. No background was subtracted. The control count says in how many pairings with the empty strains this scFv gave a signal.

Values reported by Li et al. 2023, doi:10.1038/s41467-023-39022-2 (FLAb copy).